Measured values: patent US11466042B2, “Method for producing ferric citrate hydrate” (Tokuyama Corporation, priority 2017, dated 2022)
Where “and” joins values, the source holds several entries; their conditions need not be identical. Equal entries are not always repeated.

details: BET method, nitrogen adsorption; dried solid; citrate hydrate

| Substance | Specific surface area |
| --- | --- |
| ferric citrate hydrate [Example 26] | 65.3 m^2/g |
| ferric citrate hydrate [Example 4] | 108.9 m^2/g |
| ferric citrate hydrate [Example 40] | 68.3 m^2/g |
| ferric citrate hydrate [Example 13] | 45.6 m^2/g |
| ferric citrate hydrate [Example 16] | 27.1 m^2/g |
| ferric citrate hydrate [Example 8] | 39.2 m^2/g |
| ferric citrate hydrate [Example 10] | 17.2 m^2/g |
| ferric citrate hydrate [Example 15] | 31.7 m^2/g |
| ferric citrate hydrate [Example 34] | 88.9 m^2/g |
| ferric citrate hydrate [Example 36] | 128.9 m^2/g |
| ferric citrate hydrate [Comparative example 1, reference compound] | 36.6 m^2/g |
| ferric citrate hydrate [Example 41] | 76.3 m^2/g |
| ferric citrate hydrate [Example 28] | 91.0 m^2/g |
| ferric citrate hydrate [Example 2] | 71.2 m^2/g |
| ferric citrate hydrate [Example 18] | 135.4 m^2/g |
| ferric citrate hydrate [Example 31] | 13.2 m^2/g |
| ferric citrate hydrate [Example 17] | 27.8 m^2/g |
| ferric citrate hydrate [Example 38] | 19.4 m^2/g |
| ferric citrate hydrate [Example 32] | 20.2 m^2/g |
| ferric citrate hydrate [Example 12] | 51.6 m^2/g |
| ferric citrate hydrate [Example 23] | 91.4 m^2/g |
| ferric citrate hydrate [Example 35] | 72.1 m^2/g |

| Substance | Specific surface area |
| --- | --- |
| ferric citrate hydrate [Example 33] | 86.3 m^2/g |
| ferric citrate hydrate [Example 1] | 84.4 m^2/g |
| ferric citrate hydrate [Example 22] | 72.5 m^2/g |
| ferric citrate hydrate [Example 9] | 22.9 m^2/g |
| ferric citrate hydrate [Example 24] | 89.5 m^2/g |
| ferric citrate hydrate [Ferric citrate as material] | 30.0 m^2/g |
| ferric citrate hydrate [Example 14] | 35.1 m^2/g |
| ferric citrate hydrate [Example 27] | 75.7 m^2/g |
| ferric citrate hydrate [Example 7] | 47.5 m^2/g |
| ferric citrate hydrate [Example 30] | 60.3 m^2/g |
| ferric citrate hydrate [Example 21] | 50.9 m^2/g |
| ferric citrate hydrate [Example 19] | 54.4 m^2/g |
| ferric citrate hydrate [Example 42] | 79.8 m^2/g |
| ferric citrate hydrate [Example 5] | 82.2 m^2/g |
| ferric citrate hydrate [Example 37] | 140.5 m^2/g |
| ferric citrate hydrate [Example 3] | 125.2 m^2/g |
| ferric citrate hydrate [Example 29] | 91.2 m^2/g |
| ferric citrate hydrate [Example 39] | 58.4 m^2/g |
| ferric citrate hydrate [Example 11] | 88.8 m^2/g |
| ferric citrate hydrate [Example 20] | 122.4 m^2/g |
| ferric citrate hydrate [Example 25] | 84.6 m^2/g and 91.5 m^2/g |
| ferric citrate hydrate [Example 6] | 50.6 m^2/g |

same assay, conditions: BET method, nitrogen adsorption; dried solid; listed as ferric citrate as the material, citrate hydrate

| Substance | Specific surface area [m^2/g] |
| --- | --- |
| ferric citrate hydrate [Ferric citrate as material] | 30.0 |

details: dissolving temperature 55° C., 30 minutes

| Substance | aconitic acid increases |
| --- | --- |
| ferric citrate hydrate [Ferric citrate as material] | about 0.1% |

same assay, conditions: dissolving temperature 55° C., 1 hour

| Substance | aconitic acid increases [%] |
| --- | --- |
| ferric citrate hydrate [Ferric citrate as material] | ~0.3 |

same assay, conditions: dissolving temperature 55° C., 2 hours

| Substance | aconitic acid increases [%] |
| --- | --- |
| ferric citrate hydrate [Ferric citrate as material] | ~0.5 |

same assay, conditions: dissolving temperature 80° C., 30 minutes

| Substance | aconitic acid increases |
| --- | --- |
| ferric citrate hydrate [Ferric citrate as material] | about 1.5% |

same assay, conditions: dissolving temperature 80° C., 1 hour

| Substance | aconitic acid increases [%] |
| --- | --- |
| ferric citrate hydrate [Ferric citrate as material] | ~4.0 |

same assay, conditions: dissolving temperature 80° C., 2 hours

| Substance | aconitic acid increases [%] |
| --- | --- |
| ferric citrate hydrate [Ferric citrate as material] | ~8.5 |
